Patent publication US4732933A, “Neocarzinostatin complexes, a method for producing the same, and an antitumor agent containing said complexes as an active component” (Kayaku Antibiotics Research Co., Ltd., priority 1982, dated 1988)

How the values were obtained:
[1] = tested on: cancer VX-2 of liver; experiment: Tumor affinity in cancer VX-2 of liver after intravenous injection; type: in vivo, rabit; conditions: 10 mg/kg, 90'
Text: Tumor affinity in cancer VX-2 of liver of
rabit after intravenous injection of SMANX

[2] = Solubility of SMANX in various solvents compared with NCS and starting copolymer (Table 1); type: physicochemical; conditions: concentration: 1 mg/ml
Description: The solubility of SMANX in various solvents is shown in the following Table 1 and compared with NCS and the half butyl-esterified styrene-maleic anhydride copolymer used as the starting materials.
(concentration: 1 mg/ml)

[3] = tested on: normal fibroblasts of rabit; experiment: Cell toxicity to normal fibroblasts; type: cell-based; design: key: +: Intensity of toxicity; -: No toxicity; conditions: judgement after 3 days
Text: Comparison of cell toxicity
to normal fibroblasts of rabit*
*Judgement after 3 days

neocarzinostatin-half butyl-esterified styrene-maleic acid copolymer complex [SMANX]
Tumor affinity, distant site (normal liver) [1]: < 0.32 | Tumor affinity, interior of tumor [1]: 0.7 | Solubility in 10 mM aqueous solution of sodium bicarbonate [2]: soluble | Solubility in Acetone [2]: swell | Solubility in Dioxane [2]: swell | Solubility in Lipiodol [2]: soluble | Solubility in Methanol [2]: soluble | Solubility in Pyridine [2]: soluble | Solubility in Water pH 5.0 ([2]; pH 5.0): insoluble | Solubility in Water pH 8.0 ([2]; pH 8.0): soluble | Cell toxicity to normal fibroblasts ([3]; 0.2 μg/ml): - | Cell toxicity to normal fibroblasts ([3]; 0.5 μg/ml): - | Cell toxicity to normal fibroblasts ([3]; 1.8 μg/ml): -
